Measured values from patent US20030017169A1, “Controlled release systems for polymers” (priority 2000, published 2003).

Experiment: Release of HSA and IFN from precipitates in PBS/0.01% thimerosal at 37° C. (Bio-Rad Protein Assay, ELISA)
Type: physicochemical
Details: HSA/IFN-α012 precipitate, 40% n-propanol, pH 5.52, pH 6.13 and pH 6.31
Protocol: Protein precipitation. Proteins were precipitated at ambient temperature (about 24° C.) by one of two basic procedures: the organic addition method or the acid addition method. With the organic addition method, the protein solution was prepared in aqueous solution and an organic component added to precipitate the protein. […] Precipitation was initiated by adding an acidified solution concurrent with or after addition of organic components to the protein solution. Unless otherwise stated in the legends, deionized water was used to dilute formulation reagents. HSA stock solutions were made by diluting 25% source material to 1% final concentration, and data presented were obtained using Immuno-U.S. Human Serum Albumin.
Adjustment of pH. Because organic solvent hinders the ability to accurately measure pH, the pH specified for any formulation refers to the pH of the (aqueous) solution prior to addition of the organic component. In the case of the organic addition method, the pH of an aqueous protein solution was adjusted to the desired pH just prior to adding the organic component. […]
Wash procedures. […] If the release experiment was to begin immediately, the last harvested wash sample was labeled as the zero time sample and the resuspended preparations placed in an incubator at 37 ° C. at which temperature release was measured for all samples. […]

For “HSA: Human serum albumin, carrier protein precipitated with organic solvent”, the overall burst was “minimal”.
